Details: human, in vivo, 20 mg

Tmax: 1.50 h
SMILES: COc1ccc2[nH]c([S+]([O-])Cc3ncc(C)c(OC)c3C)nc2c1 (stereo not shown) [Prilosec Delayed-Release Capsules 20 mg]

From US8993599B2, “Pharmaceutical formulations useful for inhibiting acid secretion and methods for making and using them” (Santarus, Inc., priority 2003, dated 2015)
